Measured values taken from ChEMBL document CHEMBL1149338, “Synthesis and in vitro evaluation of salvinorin A analogues: effect of configuration at C(2) and substitution at C(18)” (Bioorg Med Chem Lett, 2006).

By UniProt entry, the sequences of proteins in these tests, tags left out. Where a name states a change or a piece, a line headed by the entry shows the natural chain unless it says otherwise.
UniProt P41145: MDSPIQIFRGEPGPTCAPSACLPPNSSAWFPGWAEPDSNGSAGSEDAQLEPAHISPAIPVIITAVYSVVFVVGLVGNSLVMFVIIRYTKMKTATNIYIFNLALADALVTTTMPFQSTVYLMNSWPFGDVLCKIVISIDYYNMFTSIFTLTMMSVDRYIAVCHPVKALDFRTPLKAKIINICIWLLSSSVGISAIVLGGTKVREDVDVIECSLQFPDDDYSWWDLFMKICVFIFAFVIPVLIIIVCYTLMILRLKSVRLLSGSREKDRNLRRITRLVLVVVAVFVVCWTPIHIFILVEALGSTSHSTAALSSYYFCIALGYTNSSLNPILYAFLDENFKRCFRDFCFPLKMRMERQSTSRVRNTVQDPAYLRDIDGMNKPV

Assays:
[1] = molecular target: T1, Kappa-type opioid receptor (Homo sapiens, UniProt P41145); test: Enhancement of [35S]GTP-gamma-S binding to human KOR expressed in CHO cells relative to U50,488H; format: functional, cell-based
[2] = molecular target: T1, Kappa-type opioid receptor; test: Inhibition of [3H]diprenorphine binding to human KOR expressed in CHO cells; format: cell-based
Outline: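 Affinity: membranes from CHO cells stably transfected with human κ-opioid receptor; competitive inhibition of [3H]diprenorphine binding; Ki values; mean of at least three independent experiments, each in duplicate.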

[3] = molecular target: T1, Kappa-type opioid receptor; test: Enhancement of [35S]GTP-gamma-S binding to human KOR expressed in CHO cells; format: functional, cell-based

SMILES	Efficacy [1]	Ki [2]	EC50 [3]
COC(=O)[C@@H]1C[C@H](NC(C)C)C(=O)[C@H]2[C@@]1(C)CC[C@H]1C(=O)O[C@H](c3ccoc3)C[C@]21C	99%	–	–
CCN[C@H]1C[C@@H](C(=O)OC)[C@]2(C)CC[C@H]3C(=O)O[C@H](c4ccoc4)C[C@]3(C)[C@H]2C1=O	104%	–	–
COC(=O)[C@@H]1C[C@@H](O)C(=O)[C@H]2[C@@]1(C)CC[C@H]1C(=O)O[C@H](c3ccoc3)C[C@]21C	–	> 10000 nM	–
COC(=O)[C@@H]1C[C@H](NC(C)=O)C(=O)[C@H]2[C@@]1(C)CC[C@H]1C(=O)O[C@H](c3ccoc3)C[C@]21C	106%	–	–
COC(=O)[C@@H]1C[C@@H](NC(C)C)C(=O)[C@H]2[C@@]1(C)CC[C@H]1C(=O)O[C@H](c3ccoc3)C[C@]21C	107%	–	–
COC(=O)[C@@H]1C[C@@H](NC(C)=O)C(=O)[C@H]2[C@@]1(C)CC[C@H]1C(=O)O[C@H](c3ccoc3)C[C@]21C	103%	–	–
COC(=O)[C@@H]1C[C@@H](N(C)C(C)=O)C(=O)[C@H]2[C@@]1(C)CC[C@H]1C(=O)O[C@H](c3ccoc3)C[C@]21C	–	16.5 nM	21 nM
